Laboratory results published in PubChem BioAssay AID793 (The Scripps Research Institute Molecular Screening Center, 2007).
Only a part is listed here, and it is no random draw. Some tests of the compounds listed are not included; inactive here does not mean inactive elsewhere. The source made the active and inactive calls. No stated cut-off is given here; in the data, active means inhibition above about 17%; inactive means the rest.

Amino acid sequences for entries named in this document (tags omitted).
UniProt P49146, whole entry: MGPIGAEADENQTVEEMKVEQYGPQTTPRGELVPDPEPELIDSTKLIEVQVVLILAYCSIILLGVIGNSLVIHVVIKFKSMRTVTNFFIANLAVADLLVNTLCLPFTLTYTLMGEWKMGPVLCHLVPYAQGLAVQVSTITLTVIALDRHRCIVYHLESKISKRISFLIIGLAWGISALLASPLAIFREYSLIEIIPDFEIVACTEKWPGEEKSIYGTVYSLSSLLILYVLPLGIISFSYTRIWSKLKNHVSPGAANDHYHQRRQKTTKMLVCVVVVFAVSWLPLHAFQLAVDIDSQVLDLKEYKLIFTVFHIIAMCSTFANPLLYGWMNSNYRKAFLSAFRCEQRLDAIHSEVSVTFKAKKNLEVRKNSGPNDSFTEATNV

The compounds below were run against Neuropeptide Y receptor type 2 (Homo sapiens) (UniProt P49146) (assay: blockers of human neuropeptide Y Y2 receptor – cell-based, primary screen (AID 793;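 further: 0% = vehicle with agonist challenge and 100% = reference antagonist with challenge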)). Details: NPY-Y2 expressing cells, antagonist mode; at 2.7 µM; active compounds read high.

| SMILES | inhibition |
| --- | --- |
| O=C(OC1CN2CCC1CC2)C(CO)(c1ccccc1)c1ccccc1 (stereo not given) | inactive: 6.69% |
| CN(C)c1cccc(C(=O)NCC2(N(C)C)CCCCC2)c1 | inactive: -1.31% |
| CC(C)N1C(=O)CC2(CCN(CCOC(=O)C(O)(c3ccccc3)c3ccccc3)CC2)C1=O | inactive: 0.74% |
| CN(C)C1CCCC1OC(=O)C(O)(c1ccccc1)c1ccccc1 (stereo not given) | inactive: 1.06% |
| CCN1CCCC(OC(=O)C2(O)c3ccccc3C=Cc3ccccc32)C1 (stereo not given) | inactive: -0.76% |
